ALDH1A1 inh = blocks purified human ALDH1A1 activity. Purified ALDH1A1, NADH fluorescence, propionaldehyde substrate. P00352. 220,000 tested, 7.3% active. Potency, µM (top dose mostly 75.3 µM), most hits filed as inhibitors; active means well fitted inhibition curve with a large enough effect, not every such curve was filed as active; inconclusive means small, poorly fitted or top-dose-only effect, or another doubt; inactive means no such curve, though single readings can be large or run the other way
G9a block = blocks human histone lysine methyltransferase G9a; Q96KQ7; G9a H3K9 monomethylation, AlphaScreen, 2 h; Potency, µM (doses to about 102 µM), hits mostly inhibitors; 350,000 tested, 8.8% active; AID 504332; further: nearly all actives have a fitted effect of over 75% in size
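Quantitative HTS format: methyltransferase activity on a biotin-tagged H3K9 peptide is measured by AlphaScreen, using a rabbit anti-monomethyl-H3K9 antibody with streptavidin donor and anti-IgG acceptor beads. Final levels are 20 nM enzyme, 500 nM peptide, 20 uM SAM; 2 h RT.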
Sfp PPTase inh = Sfp phosphopantetheinyl transferase inhibition; 310,000 tested, 3.5% active; Biochemical Sfp PPTase activity, qHTS; Q9F4F7; Potency, µM, most hits filed as inhibitors; AID 1490;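 further: the enzyme is Sfp with the accession as filed and its product quenches rhodamine fluorescence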
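Buffer: 50 mM Hepes-Na pH 7.6, 10 mM MgCl2, 0.01% Nonidet P-40, 0.01% BSA. Enzyme 15 nM, pre-exposed to compound 15 min; substrates then added and fluorescence change tracked over 30 min.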
LMNA splice mod = LMNA splicing modulation; HeLa LMNA splicing GFP/RFP minigene ratio, 48 h; Potency, µM (series often up to 46.1 µM), hits mostly inhibitors; 200,000 tested, 0.01% active; active means well fitted inhibition curve with a large enough effect in the signal ratio, with a control signal flat, not every such curve was filed as active; inconclusive means small, poorly fitted or top-dose-only effect, or effect the other way, or a change in a side signal; the % refers to the signal ratio
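S3 HeLa stable clones carrying a lamin A-EGFP splicing minigene plus DsRed2 were seeded at 600 cells/well in Opti-MEM with 2% FBS, pin-dosed and incubated 48 h at 37°C. Acumen cytometry (488 nm) gave the GFP/RFP total-intensity ratio.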
miR-21 reporter = raises the signal of a miR-21 reporter | Potency, µM (doses to about 38.3 µM) | HeLa miR-21 FLuc reporter, luciferase, 48 h | AID 2288 | 340,000 tested, under 10 active; active = well fitted rising curve with a large enough effect; inconclusive = small, poorly fitted or top-dose-only effect; inactive = no such curve, though single readings can be large or run the other way;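 also: miR-21 action dims this reporter so a rising signal means less miR-21 action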
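Using DMEM plus 10% FBS, HeLa miR-21-FLuc cells are incubated with test compounds (final up to about 40uM) for 48 hours; firefly luciferase signal is then imaged following reagent-mediated lysis.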
JMJD2E inh = inhibitors of human JMJD2E histone demethylase | Potency, µM (highest dose often 57.1 µM), actives largely listed as inhibitors | B2RXH2 | JMJD2E catalytic domain, FDH-coupled NADH fluorescence (FDH is formaldehyde dehydrogenase) | AID 2147 | 230,000 tested, 1.6% active; active means well fitted inhibition curve with a large enough effect, not every such curve was filed as active; inconclusive means small, poorly fitted or top-dose-only effect, or another doubt; inactive means no such curve, though single readings can be large or run the other way; further: nearly all actives have a fitted effect of over 50% in size
Of the large screens only hits and unclear results are named; the others gave an inactive call. Most compounds without a hit are left out; they make up all but 13% or so of the library. Unless noted, the call rests on the fitted dose curve; in most records, active means well fitted curve in the direction sought with a large enough effect; inconclusive means small, poorly fitted or top-dose-only effect, or another doubt; inactive means no such curve, though single readings can be large; an effect the other way counts as inactive or inconclusive.

COC(=O)C1=C(C)N(CC(C)C)C(=O)C1	G9a block 40µM
COC(=O)C1=C(C)N(Cc2cccnc2)C(=O)C1	G9a block 14µM
COC(=O)C1=C(C)N(Cc2ccco2)C(=O)C1	ALDH1A1 inh inconclusive, G9a block inconclusive, Sfp PPTase inh inconclusive, JMJD2E inh inconclusive
COC(=O)C1=C(C)N(Cc2ccc(OC)cc2)C(=O)C1	JMJD2E inh inconclusive
Cc1cccc(N2CCN(C(=O)c3cc(S(=O)(=O)N4CCOCC4)cn3C)CC2C)c1 (stereo unspecified)	none (no result: ALDH1A1 inh, LMNA splice mod, JMJD2E inh)
COc1ccc(Cn2cc(C(=O)c3ccc(C)c(C)c3)c(=O)c3ccccc32)cc1	none (no result: ALDH1A1 inh, Sfp PPTase inh, LMNA splice mod, JMJD2E inh)
Cc1cc(C)cc(N2C(=O)CC(c3ccc(C(F)(F)F)cc3)C3=C2COC3=O)c1 (stereo unspecified)	none (no result: ALDH1A1 inh, Sfp PPTase inh, LMNA splice mod, JMJD2E inh)
CCN1C(=NCCc2c[nH]c3ccccc23)N[C@@H](c2ccccc2)C(C(=O)OC)=C1C	Sfp PPTase inh inconclusive (no result: ALDH1A1 inh, LMNA splice mod, JMJD2E inh)
COC(=O)C1=C(C)N(CCc2c[nH]c3ccccc23)C(=O)/C1=C\N(C)C	ALDH1A1 inh 13µM, G9a block inconclusive, Sfp PPTase inh 18µM
Cc1cc(OC(C)C(=O)N2CCN(CCc3ccccn3)CC2)ccc1Cl (stereo unspecified)	LMNA splice mod inconclusive (no result: ALDH1A1 inh, Sfp PPTase inh, JMJD2E inh)
N#Cc1ccccc1-c1ccc2ncnc(NCCN3CCOCC3)c2c1	ALDH1A1 inh inconclusive (no result: miR-21 reporter, JMJD2E inh)
COc1ccc(-c2ccc3c(N)c(C(=O)c4cccc(OC)c4)sc3n2)cc1	G9a block 50µM, JMJD2E inh inconclusive
Cc1cccc(OCc2nnc(SCC(=O)N3c4ccccc4CCc4ccccc43)o2)c1	none (no result: ALDH1A1 inh, LMNA splice mod)
O=C(CSc1nnc(Cc2ccccc2)o1)N1CCc2ccccc21	none
O=C(O)c1ccc(CSc2nnc(COc3ccccc3)o2)cc1	G9a block 45µM (no result: LMNA splice mod)
O=C(CSc1nnc(COc2cccc3cccnc23)o1)N1CCc2ccccc21	ALDH1A1 inh 14µM, LMNA splice mod inconclusive
O=C(CSc1nnc(COc2ccc(F)cc2)o1)N1c2ccccc2CCc2ccccc21	ALDH1A1 inh 3.2µM, LMNA splice mod inconclusive
Cc1cccc(CSc2ncc(Cl)c(C(=O)Nc3sc4c(c3C#N)CCCC4)n2)c1	none (no result: ALDH1A1 inh, Sfp PPTase inh, LMNA splice mod, JMJD2E inh)
COc1ccc(Cl)cc1NC(=O)CCN1C(=O)C2C3CCC(C3)C2C1=O (stereo unspecified)	none (no result: ALDH1A1 inh, LMNA splice mod, JMJD2E inh)
COC1(OC)N=C(N)C2(C#N)C(c3ccc(F)cc3)C12C#N (stereo unspecified)	none
CCOC1(OCC)N=C(N)C2(C#N)C(c3ccc(NC(C)=O)cc3)C12C#N (stereo unspecified)	G9a block 50µM, JMJD2E inh inconclusive
COc1cccc(C2C3(C#N)C(N)=NC(OC)(OC)C23C#N)c1 (stereo unspecified)	none
COC1(OC)N=C(N)C2(C#N)C(c3cccc(Oc4ccccc4)c3)C12C#N (stereo unspecified)	ALDH1A1 inh 22µM, JMJD2E inh inconclusive
CCSC1(SCC)N=C(N)C2(C#N)C(c3ccc(F)cc3)C12C#N (stereo unspecified)	G9a block 40µM, LMNA splice mod inconclusive, miR-21 reporter inconclusive
CC(=O)Nc1ccc(NC(C)=C(C#N)C#N)cc1	none
Cn1cc(C(=O)NCCc2ccc(Cl)cc2)c(=O)c2cc(S(=O)(=O)N3CCOCC3)ccc21	none (no result: ALDH1A1 inh, Sfp PPTase inh, LMNA splice mod, JMJD2E inh)
COc1ccc(-c2cc3c(=O)n(CC(=O)Nc4cc(C)ccc4C)ccn3n2)cc1	none (no result: ALDH1A1 inh, Sfp PPTase inh, JMJD2E inh)
CCOCC(O)COc1ccc(NC(=O)CC[S+](C)C)cc1 (stereo unspecified)	none (no result: ALDH1A1 inh, LMNA splice mod, miR-21 reporter, JMJD2E inh)
O=C(COc1ccccc1-c1ccccc1)NN=C1CCCC1	ALDH1A1 inh 11µM (no result: LMNA splice mod)
O=C(COc1ccccc1-c1ccccc1)N/N=C/c1cccc2ccccc12	ALDH1A1 inh inconclusive
CC(NC(=O)COc1ccccc1-c1ccccc1)c1ccccc1 (stereo unspecified)	Sfp PPTase inh inconclusive, LMNA splice mod inconclusive
C/C(CCC(C)C)=N\NC(=O)COc1ccccc1-c1ccccc1	ALDH1A1 inh 7.1µM, LMNA splice mod inconclusive
Cc1ccc2oc(C(=O)Nc3ccc(S(=O)(=O)Nc4nccc(C)n4)cc3)cc(=O)c2c1	none (no result: ALDH1A1 inh, Sfp PPTase inh, LMNA splice mod, JMJD2E inh)

Screening data (PubChem)
